ChEMBL document CHEMBL5365433 (J Med Chem, 2023)

Assays:
[1] = Selectivity ratio of IC50 for inhibition of PI3Kalpha (unknown origin) using PIP2:PS as substrate in presence of ATP to IC50 for inhibition of PI3Kdelta (unknown origin) using PIP2:PS as substrate in presence of ATP
[2] = Selectivity ratio of IC50 for inhibition of PI3Kgamma (unknown origin) using PIP2:PS as substrate in presence of ATP to IC50 for inhibition of PI3Kdelta (unknown origin) using PIP2:PS as substrate in presence of ATP
[3] = Selectivity ratio of IC50 for inhibition of PI3Kbeta (unknown origin) using PIP2:PS as substrate in presence of ATP to IC50 for inhibition of PI3Kdelta (unknown origin) using PIP2:PS as substrate in presence of ATP

SMILES | Ratio IC50 [1] | Ratio IC50 [2] | Ratio IC50 [3]
COc1ccc(-c2nn([C@H](C)c3nn(-c4cccnc4)c4cc(Cl)ccc34)c3ncnc(N)c23)cc1F | > 87 | > 87 | > 87
CC(c1nn(-c2cccnc2)c2cc(Cl)ccc12)n1nc(-c2ccc3c(c2)OCCO3)c2c(N)ncnc21 (stereo not drawn) | 503 | 574 | 42
COc1ccc(-c2nn(C(C)c3nn(-c4cccnc4)c4cc(Cl)ccc34)c3ncnc(N)c23)cc1 (stereo not drawn) | 931 | 1390 | 2050
COc1ccc(-c2nn(C(C)c3nn(-c4cccnc4)c4cc(Cl)ccc34)c3ncnc(N)c23)cc1F (stereo not drawn) | 5200 | > 6250 | 1950
CC(c1nn(-c2cccnc2)c2cc(Cl)ccc12)n1nc(-c2ccc(O)c(F)c2)c2c(N)ncnc21 (stereo not drawn) | 616 | 562 | 878
COc1ccc(-c2nn([C@@H](C)c3nn(-c4cccnc4)c4cc(Cl)ccc34)c3ncnc(N)c23)cc1F | 132 | 2090 | 2970
